The numbers were not newly measured in patent publication US20090324496A1, “Radioactive material for inhibiting cancer and preparation method thereof” (priority 2008, published 2009), which cites them from elsewhere.

Like-named read-outs stand apart in the source and are kept apart here.

The data set concerns advanced breast cancer with over-expression of HER2.
[1] abbreviates: secondary clinical trial, 222 patients with no response to chemotherapy.

For the substance “Herceptin: monoclonal antibody against Her-2/neu (Erb B-2) antigen in cancer cells”, the response rate (46 patients with advanced breast cancer and over-expression of HER2) is on record as 11.6%. The tumor response rate entry (as a single agent, patients with Her-2/neu over-expressing) is on record as “about 30%”. In addition, under setting [1], the control period is 9.1 months and the response rate is 16%.
